# Measurements published in patent publication US20230330112A1, “COMPOSITION AND TREATMENT FOR CANCER WITH MUTATIONS” (BRIDGE BIOTHERAPEUTICS, INC., priority 2022, published 2023).
# Tested on: Ba/F3 cells carrying EGFR 19Del-derived Compound A-resistant clones
# Experiment: Cell growth-inhibition assay, Compound A-resistant clones from Ba/F3 EGFR 19Del (ENU mutagenesis)
# Type: cell-based, murine
# Conditions: cetuximab alone; as well as in parental cells
# Procedure: Ba/F3 cells expressing EGFR mutations were exposed to 100 m/mL ENU for 24 hours. The cells were washed and cultured in RPMI with 10% FBS for 24 hours. Subsequently, 1×10^4 cells were plated in 96-well plates in the presence of Compound A. The medium containing Compound A was changed twice weekly for 3 weeks. When the cell growth was observed macroscopically, the cells were transferred to 48-well plates and incubated until they reached confluence in the absence of drug. Using the RNeasy Plus Mini Kit (QIAGEN), total RNA was isolated from resistant clones. Then, RNA was converted to cDNA using ReverTra Ace (TOYOBO) and total EGFR cDNAs were sequenced using a Genetic Analyzer 3130 or 3500XL (APPLIED BIOSYSTEMS).
# A total of 2×10^3 cells were seeded in each well of 96-well plates. After 24 hours, EGFR TKIs were added at the indicated concentrations. After a 72-hour incubation, 10 μL of the Cell Counting Kit-8 solution (DOJINDO LABORATORIES) was added to each well, and the plates were incubated for an additional 3 hours. Absorbance at 450 nm was measured using a multiplate reader (Tecan). The percentage of viable cells was evaluated and compared with those of DMSO-treated controls or PBS-treated controls.
substance,measurement,value
cetuximab,overcoming Compound A-resistant clones (cell growth),able to overcome
